Assay results: patent US20220096421A1, “Active Ingredient, Pharmaceutical Composition, and Medicinal Product for HIV and AIDS Therapy” (priority 2019, published 2022)

Assay: Clinical trial in healthy volunteers, pharmacokinetics with daily administration of capsules

accumulation in the blood after repeated drug administration: showed accumulation in the blood
Compound: N#Cc1cc(Cl)cc(Oc2c(Br)ccc(CC(=O)Nc3ccc(S(N)(=O)=O)cc3Cl)c2F)c1 [Ia]
concentration of the metabolite in blood cells compared with plasma (repeated administration): an order of magnitude higher than in the plasma
